IntAct's records for PubMed 15901672

B1: Bcl-2 homologous antagonist/killer (Homo sapiens), Q16611 (parent)
chain: MASGQGPGPPRQECGEPALPSASEEQVAQDTEEVFRSYVFYRHQQEQEAEGVAAPADPEMVTLPLQPSSTMGQVGRQLAIIGDDINRRYDSEFQTMLQHLQPTAENAYEYFTKIATSLFESGINWGRVVALLGFGYRLALHVYQHGLTGFLGQVTRFVVDFMLHHCIARWIAQRGGWVAALNLGNGPILNVLVVLGVVLLGQFVVRRFFKS

Variants of: B1
Details: with q07817-1 BCL2L1, Q07817-1

Variant	effect of a mutation on the interaction
L78A	decreasing interaction
